Test results: publication PMC10853020 (Journal of medicinal chemistry, 2023)

Tested on: hMDRI-MDCKII cells
Assay: MDCK-MDR1 permeability
Conditions: from efflux ratios in absence or presence of P-gp inhibitor

CCCCCCCC/C=C\CCCCCCCC(=O)NC(CO)(CO)CO [Compound 13, N-(1,3-Dihydroxy-2-(hydroxymethyl)propan-2-yl)oleamide]
P-gp substrate: not a predicted substrate for P-gp
